Drawing on PubChem BioAssay AID1463 (National Center for Advancing Translational Sciences (NCATS), 2008), this text covers activity change, negative = decrease for 79 compounds.

The list shows a part of the results, in another mix than the full data. Inconclusive results are not listed. Activity calls are given as the source filed them. Calls follow the shape of the dose curve; as a rule, active = well fitted curve in the direction sought with a large enough effect; inconclusive = small, poorly fitted or top-dose-only effect; inactive = flat fitted curve, though single readings scatter.
% is scaled to controls: 0 for no effect and ±100 for the full control effect.

A short description of the assay: Counterscreen qHTS for Inhibitors of Tau Fibril Formation, Fluorescence Polarization. Also: nearly all actives have a fitted effect of over 55% in size. Conditions: tau K18 P301L (four-repeat tau fragment) Alexa594 fluorescence, heparin fibrillization; at 57.7 µM (top of the series). (Counterscreens check selectivity or assay interference.)
On to `CCOC(=O)c1ccc(NP(C)(=O)Oc2ccccc2)cc1` (centres undefined), for which the activity change, negative = decrease was inactive: -4.49%.

On to `Cc1ccc(NP(C)(=O)Oc2ccccc2)c(C)c1` (centres undefined), for which the activity change, negative = decrease was inactive: -3.14%.

Turning to `COc1ccccc1OP(C)(=O)Nc1ccc(C)cc1` (centres undefined), the activity change, negative = decrease is inactive: 2.08%.

In the case of `COc1ccc(OP(C)(=O)Nc2cccc(F)c2)cc1` (centres undefined), the activity change, negative = decrease is inactive: -5.47%.

Take `COc1ccccc1OP(C)(=O)Nc1cc(Cl)ccc1C` (centres undefined): the activity change, negative = decrease was inactive: -11.4%.

For the compound `Cc1cc(C)cc(OP(C)(N)=O)c1` (centres undefined), the activity change, negative = decrease is inactive: -2.02%.

In the case of `Cc1cccc(C)c1OP(C)(N)=O` (centres undefined), the activity change, negative = decrease was inactive: -2.19%.

For `CC(C)(C)c1ccc(OP(C)(=O)Nc2ccc(SC(F)(F)F)cc2)cc1` (centres undefined), the activity change, negative = decrease is inactive: -15.5%.

As to `O=[N+]([O-])c1ccc2c(c1)C=Nc1ccccc1O2`, the activity change, negative = decrease is inactive: -27.6%.

`CCN(CC)CCCOC(=O)C(O)(c1ccccc1)c1ccccc1`: the activity change, negative = decrease is inactive: 1.05%.

With `CCOP(C)(=S)SCC(=O)NC(C)C(=O)O` (centres undefined), the activity change, negative = decrease is inactive: -0.745%.

With `CCOC(=O)c1ccc(NP(C)(=O)Oc2ccc(OC)cc2)cc1` (centres undefined), the activity change, negative = decrease was inactive: -9.05%.

Regarding `CP(=O)(Nc1ccccn1)Oc1ccc(Cl)cc1` (centres undefined), the activity change, negative = decrease is inactive: 0.512%.

With `CP(=O)(Oc1ccccc1)OC(c1ccccc1)C(F)(F)F` (centres undefined), the activity change, negative = decrease was inactive: -3.2%.

Regarding `Cc1cccc(C)c1OP(C)(=O)Nc1ccc(SC(F)(F)F)cc1` (centres undefined), the activity change, negative = decrease is inactive: -19.7%.

As to `Cc1cc(C)cc(OP(C)(=O)Nc2ccc(SC(F)(F)F)cc2)c1` (centres undefined), the activity change, negative = decrease was inactive: -18.5%.

As for `CP(=O)(NC(=O)Nc1ccccc1)Oc1ccccc1` (centres undefined), the activity change, negative = decrease is inactive: -4.91%.

As to `CP(=S)(Nn1cnnc1)Oc1ccccc1` (centres undefined), the activity change, negative = decrease is inactive: -0.0504%.

For the compound `COc1ccccc1OP(C)(=O)Nc1ccccc1` (centres undefined), the activity change, negative = decrease was inactive: -3.15%.

Regarding `CP(=O)(Nc1ccccc1Br)Oc1ccccc1` (centres undefined), the activity change, negative = decrease was inactive: -4.72%.

With `COc1ccccc1OP(C)(=O)Nc1c(C)cccc1C` (centres undefined), the activity change, negative = decrease is inactive: -2%.

In the case of `CN1CCCCC1COC(=O)C1(O)c2ccccc2CCc2ccccc21` (centres undefined), the activity change, negative = decrease is inactive: -0.445%.

As to `CP(=O)(Nc1ccc(SC(F)(F)F)cc1)Oc1ccccc1` (centres undefined), the activity change, negative = decrease was inactive: -14%.

`CCCOc1ccc(NP(C)(=O)Oc2ccc(Cl)cc2)cc1` (centres undefined): the activity change, negative = decrease was inactive: -7.03%.

For `O=[N+]([O-])c1cc([N+](=O)[O-])c(Nc2nnnn2CCO)c([N+](=O)[O-])c1`, the activity change, negative = decrease was inactive: -23.7%.

In the case of `Cc1nc2ccc3ccccc3c2s1.O=[N+]([O-])c1cc([N+](=O)[O-])c(O)c([N+](=O)[O-])c1`, the activity change, negative = decrease is inactive: -10.1%.

For the compound `O=[N+]([O-])c1cc([N+](=O)[O-])c(-n2nnc3ccccc32)c([N+](=O)[O-])c1`, the activity change, negative = decrease was inactive: 4.96%.

Turning to `CP(=O)(Nc1cccc(Br)c1)Oc1ccccc1` (centres undefined), the activity change, negative = decrease is inactive: -10.3%.

On to `Cc1cc(C)cc(OP(C)(=O)Nc2ccccn2)c1` (centres undefined), for which the activity change, negative = decrease is inactive: -2.82%.

As for `Cc1ccc(C)c(NP(C)(=O)Oc2ccccc2)c1` (centres undefined), the activity change, negative = decrease was inactive: 7.3%.

Take `COc1ccccc1OP(C)(=O)Nc1cccc(Br)c1` (centres undefined): the activity change, negative = decrease was inactive: 3.39%.

`Cc1cc(C)cc(OP(C)(=O)Nc2ccc(C)cc2C)c1` (centres undefined): the activity change, negative = decrease was inactive: -10.8%.

As for `CCOC(=O)c1ccc(NP(C)(=O)Oc2cc(C)cc(C)c2)cc1` (centres undefined), the activity change, negative = decrease is inactive: -14.9%.

For `O=[N+]([O-])OCC(CO[N+](=O)[O-])(CO[N+](=O)[O-])CO[N+](=O)[O-]`, the activity change, negative = decrease is inactive: -3.71%.

Consider `CC1=NCCc2c1[nH]c1ccccc21.O=[N+]([O-])c1cc([N+](=O)[O-])c(O)c([N+](=O)[O-])c1`, for which the activity change, negative = decrease is inactive: -16.7%.

`CCN(CC)CCCOC(=O)C(O)(c1ccccc1)C1CCCCC1` (centres undefined): the activity change, negative = decrease was inactive: 1.65%.

Consider `CCCCCOc1ccc(NP(C)(=O)Oc2ccc(Cl)cc2Cl)cc1` (centres undefined), for which the activity change, negative = decrease is inactive: -13.3%.

`CP(=O)(Nc1ccccc1)Oc1ccc(F)cc1` (centres undefined): the activity change, negative = decrease is inactive: 7.17%.

Turning to `COc1ccc(OP(C)(=O)Nc2ccc(SC(F)(F)F)cc2)cc1` (centres undefined), the activity change, negative = decrease was inactive: -8.2%.

For the compound `CCOC(=O)c1ccc(NP(C)(=O)Oc2ccc(F)cc2)cc1` (centres undefined), the activity change, negative = decrease is inactive: 6.98%.

For the compound `O=C(OCCN1CCN(CCOCc2ccccc2)CC1)C(O)(c1ccccc1)c1ccccc1`, the activity change, negative = decrease was inactive: 8.51%.

As for `CC(C)c1ccc(OP(C)(=O)Nc2ccc(SC(F)(F)F)cc2)cc1` (centres undefined), the activity change, negative = decrease was inactive: -13.5%.

With `CP(=O)(Nc1ccccc1F)Oc1ccccc1` (centres undefined), the activity change, negative = decrease was inactive: -1.24%.

Regarding `CP(=O)(Nc1ccc2c(c1)OCCO2)Oc1ccccc1` (centres undefined), the activity change, negative = decrease is inactive: -2.09%.

Regarding `CCN(CCCl)Cc1ccccc1C`, the activity change, negative = decrease is inactive: -5.1%.

For `Cc1ccccc1NP(C)(=O)Nc1ccccc1C`, the activity change, negative = decrease is inactive: 1.4%.

Consider `CP(=O)(Nc1ccc(SC(F)(F)F)cc1)Oc1ccc(F)cc1` (centres undefined), for which the activity change, negative = decrease was inactive: -4.94%.

For `CCOP(C)(=S)SCC(=O)NC(C)(CC)C(=O)O` (centres undefined), the activity change, negative = decrease was inactive: -9.86%.

As to `Cc1cc(-c2cccc3ccccc23)c(C)cn1.O=[N+]([O-])c1cc([N+](=O)[O-])c(O)c([N+](=O)[O-])c1`, the activity change, negative = decrease is inactive: -10.7%.

On to `O=[N+]([O-])c1ccc(OP2(=O)COCCO2)cc1` (centres undefined), for which the activity change, negative = decrease was inactive: -11.9%.

For `COc1ccc(OP(C)(=O)Nc2cccc(Br)c2)cc1` (centres undefined), the activity change, negative = decrease is inactive: -4.26%.

For `COc1ccc(NP(C)(=O)Oc2ccccc2OC)cc1` (centres undefined), the activity change, negative = decrease is inactive: -5.29%.

Regarding `CN(C)CCOC(=O)C(O)(c1ccccc1)C1CCCCC1` (centres undefined), the activity change, negative = decrease is inactive: -2.69%.

For `CP(=O)(OC12CC3CC(CC(C3)C1)C2)OC12CC3CC(CC(C3)C1)C2`, the activity change, negative = decrease is inactive: -9.32%.

Take `CCOC(=O)c1ccc(NP(C)(=O)Oc2ccc(Cl)cc2)cc1` (centres undefined): the activity change, negative = decrease is inactive: -16.1%.

On to `CP(=O)(Nc1ccc(Cl)cc1)Oc1ccc(F)cc1` (centres undefined), for which the activity change, negative = decrease was inactive: -4.93%.

As for `CC(C)(C)c1ccc(OP(C)(=O)O)cc1`, the activity change, negative = decrease was inactive: -3.47%.

Consider `COc1ccccc1OP(C)(=O)Nc1ccccc1Br` (centres undefined), for which the activity change, negative = decrease was inactive: -9.32%.

Consider `CN(C)C(=O)c1c([N+](=O)[O-])cc([N+](=O)[O-])cc1[N+](=O)[O-]`, for which the activity change, negative = decrease is inactive: -16.9%.

Take `COc1ccc(OP(C)(=O)Nc2ccc(Br)cc2)cc1` (centres undefined): the activity change, negative = decrease is inactive: -3.62%.

In the case of `CCN(CC)CC(O)COC(=O)C(O)(c1ccccc1)C1CCCCC1` (centres undefined), the activity change, negative = decrease was inactive: -7.82%.

Consider `CCc1ccc(OP(C)(=O)Nc2cccnc2)cc1` (centres undefined), for which the activity change, negative = decrease is inactive: 2.99%.

As for `CP(=O)(Oc1ccccc1)N1CCOC1=O` (centres undefined), the activity change, negative = decrease was inactive: -5.23%.

On to `OCCSCCO`, for which the activity change, negative = decrease was inactive: 1.08%.

For the compound `O=C(OCCCN1CCCC1)C(O)(c1ccccc1)C1CCCCC1` (centres undefined), the activity change, negative = decrease was inactive: -4.56%.

In the case of `COc1ccccc1OP(C)(=O)Nc1c(C)n(C)n(-c2ccccc2)c1=O` (centres undefined), the activity change, negative = decrease was inactive: -1.41%.

As to `O=[N+]([O-])c1cc([N+](=O)[O-])c(Nc2ccccn2)c([N+](=O)[O-])c1`, the activity change, negative = decrease was inactive: -20.3%.

In the case of `Cc1c(NP(C)(=O)Oc2ccc(C(C)C)cc2)c(=O)n(-c2ccccc2)n1C` (centres undefined), the activity change, negative = decrease is inactive: 0.831%.

As to `CCc1ccc(OP(C)(=O)O)cc1`, the activity change, negative = decrease is inactive: 1.89%.

For `COc1ccccc1OP(C)(=O)Nc1ccc(C)cc1C` (centres undefined), the activity change, negative = decrease is inactive: -5.51%.

Consider `CP(=O)(Nc1ccccn1)Oc1ccccc1` (centres undefined), for which the activity change, negative = decrease was inactive: 5.16%.

For the compound `CN(C)CCOC(=O)C(O)(c1ccccc1)C1CCCC1` (centres undefined), the activity change, negative = decrease was inactive: -3.32%.

As for `COc1ccc(OP(C)(=O)Nc2ccccn2)cc1` (centres undefined), the activity change, negative = decrease was inactive: -9.45%.

On to `Cc1nc2ccc3ccccc3c2o1.O=[N+]([O-])c1cc([N+](=O)[O-])c(O)c([N+](=O)[O-])c1`, for which the activity change, negative = decrease was inactive: -24.6%.

Turning to `CP(=O)(OCCOc1ccccc1)OCCOc1ccccc1`, the activity change, negative = decrease is inactive: 1.54%.

As for `CP(=O)(Nc1ccc(Cl)cc1Cl)Oc1ccccc1` (centres undefined), the activity change, negative = decrease is inactive: 2.34%.

Regarding `Cc1cc(C)cc(OP(C)(=O)Nc2cccc(C(F)(F)F)c2)c1` (centres undefined), the activity change, negative = decrease is inactive: -19.4%.

Regarding `COc1ccc(OP(C)(=O)Nc2ccccc2Br)cc1` (centres undefined), the activity change, negative = decrease was inactive: -2.33%.

With `COc1ccccc1OP(C)(=O)Nc1ccc(C)c(C)c1` (centres undefined), the activity change, negative = decrease was inactive: -0.909%.
